From patent US20230263164A1 (priority 2020, published 2023)

Experiment: Kinetics of hydrolysis of dithiophosphates by 31P NMR spectroscopy
Settings: 85° C., 90% H2O/D2O

Row | Structure (SMILES) | t1/2 (days) of first step [days]
1 | S=P1([S-])OCCCO1.[K+] | 42
2 | CC(C)OP(=S)([S-])OC(C)C.[K+] | 17
